Values of other authors in patent EP4725948A1, “PYRROLO[2,3-D]PYRIMIDIN-4-AMINE DERIVATIVE AND USE THEREOF IN MEDICINE” (Haisco Pharmaceutical Group Co., Ltd., priority 2023, dated 2024).

Details: AE frequency, riociguat group, cited from earlier work

## COC(=O)N(C)c1c(N)nc(-c2nn(Cc3ccccc3F)c3ncccc23)nc1N [riociguat, Riociguat]
12-week PATENT-1 study (placebo 8%)
  dyspepsia/gastritis: 21%
12-week PATENT-1 study (placebo 11%)
  nausea: 14%
12-week PATENT-1 study (placebo 18%)
  headache: 27%
